Test results reported in PubChem BioAssay AID1259310 (The Scripps Research Institute Molecular Screening Center, 2017).
Only a part is listed here, and it is no random draw. Activity calls are given as the source filed them. No stated cut-off is given here; in the data, active means normalized activity above about 1.9%; inactive means the rest.

The chains behind the UniProt entries cited, without tags or fusion partners. Where a name states a change or a piece, a line headed by the entry shows the natural chain unless it says otherwise.
UniProt Q969H0, whole entry, stated change not applied: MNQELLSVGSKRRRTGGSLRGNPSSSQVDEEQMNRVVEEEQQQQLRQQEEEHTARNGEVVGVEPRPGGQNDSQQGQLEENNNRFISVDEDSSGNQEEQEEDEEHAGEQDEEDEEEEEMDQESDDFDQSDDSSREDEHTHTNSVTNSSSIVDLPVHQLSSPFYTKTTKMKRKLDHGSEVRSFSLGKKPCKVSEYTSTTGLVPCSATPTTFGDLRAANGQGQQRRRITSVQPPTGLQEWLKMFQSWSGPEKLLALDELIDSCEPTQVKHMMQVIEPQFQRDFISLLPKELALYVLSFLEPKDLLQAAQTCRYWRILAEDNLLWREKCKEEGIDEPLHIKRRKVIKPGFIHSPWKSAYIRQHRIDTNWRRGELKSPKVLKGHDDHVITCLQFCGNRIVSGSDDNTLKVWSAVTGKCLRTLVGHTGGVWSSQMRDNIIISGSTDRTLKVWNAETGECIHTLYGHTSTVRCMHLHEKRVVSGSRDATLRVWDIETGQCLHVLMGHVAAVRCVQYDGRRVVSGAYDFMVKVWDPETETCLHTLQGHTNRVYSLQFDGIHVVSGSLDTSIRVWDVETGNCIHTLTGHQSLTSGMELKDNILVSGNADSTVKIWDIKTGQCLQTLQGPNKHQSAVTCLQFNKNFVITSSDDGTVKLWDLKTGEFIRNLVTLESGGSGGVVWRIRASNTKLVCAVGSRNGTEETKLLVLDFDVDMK

Molecular target: F-box/WD repeat-containing protein 7 (Homo sapiens) (UniProt Q969H0)
Test: FBW7 E3 ligase activators, primary screen, biochemical, AlphaScreen, human (AID 1259310);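 further: purified mutant Fbw7 with reduced substrate affinity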
Settings: AlphaScreen FBW7–phospho-cyclin E peptide binding, activator screen; at 26.1 µM; hits give high values

Structure (SMILES)	normalized activity (activation)
CN(CCCl)CCCl	inactive: 0.03%
